In patent US20170095435A1, “AGENT FOR THE TREATMENT AND PREVENTION OF AUTISM SPECTRUM DISORDERS” (published 2017):
This is a selection: effects in other tests are not listed, and their absence says nothing.

Columns and labels:
[1] = doses exceeding the recommended therapeutic dose of glycine 20-fold; cited from earlier work
Balb/C mice [2] = test: learning and replicating the spatial skill after spatial reversal (relearning) in the Morris water maze; conditions: for Replication: Time in the platform quadrant / Training: Number of effective attempts, 1 day / Training: Number of effective attempts, 2 day / Training: Time of searching for the platform, 1 day / Training: Time of searching for the platform, 2 day: after spatial reversal, over 6 days
Description: (§1) A method developed in 2007 and described in [7] was used to evaluate the effect of […] on the symptoms of autism spectrum disorders. The effect of the tested compounds on the spatial learning process and the ability to make a new spatial move during retraining in a water maze were examined.
(§2) The test was conducted in the Morris water maze. The mice were first taught the skill of locating a platform in a water maze and replicating this spatial skill. The animals were later confronted with a new location of the platform and thus, spatial “reversal” was created. During relearning (relocation of the platform in the water maze) the animals had to make a new decision and make a correct spatial move.
The day after replicating the spatial skill, the platform is moved to the area of the pool diagonally opposite its previous location. The platform has to be immersed in the water at the same 0.5 cm depth below the water level as in the previous days of training. The training (2 days) and replication procedures are repeated according to the scheme described earlier.

Balb/C mice [3] = test: olfactory habituation/dishabituation test
Description: Autism impairs the ability to adequately react to social and nonsocial olfactory stimuli. Experimental models of said disorders take into consideration the established fact that all interactions between mice, first and foremost, occur via their olfactory signals. Thus, the olfactory habituation/dishabituation in the experiment is examined by repeatedly exposing the mice to nonsocial and social odors in the habituation/dishabituation test.
The experiment was conducted on male Balb/C mice, 5-7-weeks old, weighing 13-15 g. C57Bl/6 mice of the same gender as the tested animals were used as social stimuli. Outbred male mice, 2-3 month old, weighing 24-30 g were used as an additional control.
The substances were administered to the mice once, intraperitoneally, at 0.1 ml per 10 g body weight, 40 min. prior to the experiment.
The olfactory habituation/dishabituation test was used to determine the animals' ability to respond to social and nonsocial olfactory stimuli. The test was conducted according to method proposed in 2010.
Prior to testing, the mice were placed separately into a cage with clean wood shavings for 30 min. A 15-cm long cotton swab was moistened with water and extended through the cage cover to the height of 5 cm above the wood shavings on the bottom of the cage. Each odor was introduced three times:
3 introductions—nonsocial stimulus: diluted flower smell (lemon extract diluted in a 1:100 ratio (water);
3 introductions—social stimulus (odor from an “unfamiliar” murine cage with soiled wood shavings).
For the social stimulus, a cotton swab that had been moistened with water was used to swab the bottom of “another” soiled murine cage, zigzagging through the cage to cover every corner and the center of the cage. The “other” cage should have housed at least 3 C57Bl/6 mice of the same gender as the tested mice. The wood shavings could not be replaced for at least 3 days.
The observation was conducted for a period of 2 min. The following parameters were recorded:
number of head (nose) lifts and turns toward the swab with an odor located no farther than 2 cm away;
number of approaches to the swab;
number of sniffs of the swab;
number of climbs onto the swab;
number of chewings of the swab.
After 2 min., the cotton swab was replaced with another, which was also introduced for 2 min.

Balb/C mice [4] = test: learning and replicating the spatial skill in the Morris water maze; conditions: for Replication: Time in the platform quadrant / Training: Number of effective attempts, 1 day / Training: Number of effective attempts, 2 day / Training: Time of searching for the platform, 1 day / Training: Time of searching for the platform, 2 day: over 6 days
Description: The experiment was conducted on male Balb/C mice, 5-7-weeks old, weighing 13-15 g. The source of mice and holding conditions were identical to those in Example 1.
In Example 2, the tested substances were used the same way as in Example 1.
The substances were administered to the mice at 0.1 ml per 10 kg of body weight over 6 days. The control Balb/C animals and outbred mice were intraperitoneally administered physiological solution at 0.1 ml per 10 kg of body weight 40 min. prior to the experiment.
as §1, §2
The Morris maze is a large circular pool, 122 cm in diameter, 25 cm deep, filled with water at 25-28° C. A round platform 12 cm in diameter was placed into the pool. The center of the platform was positioned 30 cm away from the edge of the pool.
A platform is located 0.5 cm above the water. A mouse is placed on the platform for 20 sec. The mouse is then placed in the water at the opposite end of the pool and allowed 60 sec. to find the platform, climb it, and stay there for 20 sec. The process is repeated by placing the mouse in the water in the location of the pool different from the location of the first attempt. Each animal is allowed 4 attempts to find the platform.
If the animal is unable to find the platform all by itself in 60 sec., the researcher helps it to find its way to the platform and climb it.
During the next 2 days, the platform is placed 0.5 cm below the water level. The animals are allowed 4 attempts per day to find the platform in 60 sec. The time gap between the attempts is 20 sec., wherein they stay on the platform. Every day, before their first attempt, the animals are placed on the platform for 20 sec. The time between the moment the animal is placed in the water and the moment the animal climbs on the platform is recorded, as well as the number of effective attempts to find the platform. The animals are placed in the water in three different locations in the part of the pool opposite the platform.
24 hrs. post the second day of training, the replication of the spatial skill is evaluated: the platform is removed and the animals are placed in the pool for 60 sec. once; the time length of the animal's stay in the quadrant wherein the platform had been located during the learning stage is recorded. Said time is an indicator of learning efficiency and replication of the spatial skill.

[5] = nanolycine at both doses (1- and 10-mg/kg)
[6] = 10-mg/kg, second day of training

glycine immobilized on detonation nanodiamond particles 2-10 nm in size
side or toxic effects [1]: did not cause any side or toxic effects
increase of the time the animals spent in the "correct" quadrant after spatial reversal (Balb/C mice [2]; 1-mg/kg): 3.4 times
number of effective attempts to find the platform as compared to the control animals, first day of retraining (Balb/C mice [2]; 1-mg/kg): 2.4 times
effect of the preparation during retraining (second vs first day) (Balb/C mice [2]; 10-mg/kg): positive effect
impact on the replication of the newly acquired skill (Balb/C mice [2]; Triftazin 0.5 mg/kg, glycine 10-mg/kg, nanolycine 10-mg/kg): did not make any impact
Replication: Time in the platform quadrant (Balb/C mice [2]; 1-mg/kg): 11.2 ± 4.5 s
Training: Number of effective attempts, 1 day (Balb/C mice [2]; 1-mg/kg): 1.2 ± 0.4 units
Training: Number of effective attempts, 2 day (Balb/C mice [2]; 1-mg/kg): 2.2 ± 0.6 units
Training: Time of searching for the platform, 1 day (Balb/C mice [2]; 1-mg/kg): 49.4 ± 3.7 s
Training: Time of searching for the platform, 2 day (Balb/C mice [2]; 1-mg/kg): 48.4 ± 3.9 s
Replication: Time in the platform quadrant (Balb/C mice [2]; 10-mg/kg): 14.1 ± 4.6 s
Training: Number of effective attempts, 1 day (Balb/C mice [2]; 10-mg/kg): 1.0 ± 0.5 units
Training: Number of effective attempts, 2 day (Balb/C mice [2]; 10-mg/kg): 1.8 ± 0.5 units
Training: Time of searching for the platform, 1 day (Balb/C mice [2]; 10-mg/kg): 54.4 ± 3.1 s
Training: Time of searching for the platform, 2 day (Balb/C mice [2]; 10-mg/kg): 45.9 ± 4.5 s
difference from the control group in both recorded parameters on the first and second day of retraining (Balb/C mice [2]; nanolycine 1-mg/kg, nanodiamond, glycine, Triftazin): did not show any statistically significant difference
ability to recognize the "C57Bl/6 mice odor" stimulus at the first exposure, higher than Balb/C mice (Balb/C mice [3]; 1-mg/kg, p<0.05): 2.1 times
response to the third "lemon" odor exposure lower than response to the second exposure (Balb/C mice [3]; 10-mg/kg): 68%
reduced murine response after repeated exposure vs first exposure (Balb/C mice [3]; "C57Bl/6 mice odor" stimulus, 1-mg/kg): 61.2%
reduced murine response after repeated exposure vs first exposure (Balb/C mice [3]; "C57Bl/6 mice" odor, 10-mg/kg): 65.4%
reduced murine response after repeated exposure vs first exposure (Balb/C mice [3]; "water" stimulus, 1-mg/kg): 32.5%
reduced murine response after repeated (second) exposure vs first exposure (Balb/C mice [3]; "water" stimulus, 10-mg/kg): 43.4%
Response to the olfactory stimulus of Balb/C mice (Balb/C mice [3]; C57B1/6 mice odor, exposure 1, 1-mg/kg i.p. once): 14.7 ± 1.6$ units
Response to the olfactory stimulus of Balb/C mice (Balb/C mice [3]; C57B1/6 mice odor, exposure 1, 10-mg/kg i.p. once): 7.8 ± 0.8 units
Response to the olfactory stimulus of Balb/C mice (Balb/C mice [3]; C57B1/6 mice odor, exposure 2, 1-mg/kg i.p. once): 5.7 ± 1.2 units
Response to the olfactory stimulus of Balb/C mice (Balb/C mice [3]; C57B1/6 mice odor, exposure 2, 10-mg/kg i.p. once): 2.7 ± 0.7 units
Response to the olfactory stimulus of Balb/C mice (Balb/C mice [3]; C57B1/6 mice odor, exposure 3, 1-mg/kg i.p. once): 3.3 ± 0.5 units
Response to the olfactory stimulus of Balb/C mice (Balb/C mice [3]; C57B1/6 mice odor, exposure 3, 10-mg/kg i.p. once): 1.5 ± 0.3 units
Response to the olfactory stimulus of Balb/C mice (Balb/C mice [3]; Lemon, exposure 1, 1-mg/kg i.p. once): 2.0 ± 0.4 units
Response to the olfactory stimulus of Balb/C mice (Balb/C mice [3]; Lemon, exposure 1, 10-mg/kg i.p. once): 2.5 ± 0.6 units
Response to the olfactory stimulus of Balb/C mice (Balb/C mice [3]; Lemon, exposure 2, 1-mg/kg i.p. once): 1.3 ± 0.4 units
Response to the olfactory stimulus of Balb/C mice (Balb/C mice [3]; Lemon, exposure 2, 10-mg/kg i.p. once): 2.5 ± 0.7 units
Response to the olfactory stimulus of Balb/C mice (Balb/C mice [3]; Lemon, exposure 3, 1-mg/kg i.p. once): 1.3 ± 0.4 units
Response to the olfactory stimulus of Balb/C mice (Balb/C mice [3]; Lemon, exposure 3, 10-mg/kg i.p. once): 0.8 ± 0.2 units
Response to the olfactory stimulus of Balb/C mice (Balb/C mice [3]; Water, exposure 1, 1-mg/kg i.p. once): 7.7 ± 0.8 units
Response to the olfactory stimulus of Balb/C mice (Balb/C mice [3]; Water, exposure 1, 10-mg/kg i.p. once): 8.3 ± 0.8 units
Response to the olfactory stimulus of Balb/C mice (Balb/C mice [3]; Water, exposure 2, 1-mg/kg i.p. once): 5.2 ± 0.9 units
Response to the olfactory stimulus of Balb/C mice (Balb/C mice [3]; Water, exposure 2, 10-mg/kg i.p. once): 4.7 ± 0.8 units
Response to the olfactory stimulus of Balb/C mice (Balb/C mice [3]; Water, exposure 3, 1-mg/kg i.p. once): 3.3 ± 0.4 units
Response to the olfactory stimulus of Balb/C mice (Balb/C mice [3]; Water, exposure 3, 10-mg/kg i.p. once): 3.8 ± 0.6 units
habituation to olfactory stimuli as compared to the control Balb/C animals (Balb/C mice [3]; nanolycine 1- and 10-mg/kg, nanodiamond, glycine 10-mg/kg, Triftazin 0.5 mg/kg): faster
effectiveness compared with Triftazin (0.5 mg/kg) (Balb/C mice [3]; [5]): as effective as
effectiveness compared with glycine (10-mg/kg) (Balb/C mice [3]; [5]): more effective than
Replication: Time in the platform quadrant (Balb/C mice [4]; 1-mg/kg): 30.5 ± 4.8 s
Training: Number of effective attempts, 1 day (Balb/C mice [4]; 1-mg/kg): 2.2 ± 0.6 units
Training: Number of effective attempts, 2 day (Balb/C mice [4]; 1-mg/kg): 2.7 ± 0.7 units
Training: Time of searching for the platform, 1 day (Balb/C mice [4]; 1-mg/kg): 42.0 ± 6.5 s
Training: Time of searching for the platform, 2 day (Balb/C mice [4]; 1-mg/kg): 43.2 ± 4.4 s
increase of the number of effective attempts to find the platform vs control group of linear mice (Balb/C mice [4]; 1-mg/kg, second day of training): 4.4 times
reduction in the time that took to find the platform vs control (Balb/C mice [4]; 1-mg/kg, trend level p<0.1): 14%
Replication: Time in the platform quadrant (Balb/C mice [4]; 10-mg/kg): 12.5 ± 3.4 s
Training: Number of effective attempts, 1 day (Balb/C mice [4]; 10-mg/kg): 1.3 ± 0.3 units
Training: Number of effective attempts, 2 day (Balb/C mice [4]; 10-mg/kg): 2.3 ± 0.5 units
Training: Time of searching for the platform, 1 day (Balb/C mice [4]; 10-mg/kg): 53.5 ± 2.5 s
Training: Time of searching for the platform, 2 day (Balb/C mice [4]; 10-mg/kg): 42.3 ± 5.7 s
larger number of effective attempts as compared to the control group (Balb/C mice [4]; [6]): 3.6 times
less time on the search for the platform as compared to the control group (Balb/C mice [4]; [6]): 18.5%
difference from the linear (control Balb/C) mice on the first day of training (Balb/C mice [4]; nanolycine 1- and 10-mg/kg, nanodiamond, glycine, Triftazin): didn't show any statistically significant difference
